Data published in article PMC9561763, “Semi-rational engineering membrane binding domain of L-amino acid deaminase from Proteus vulgaris for enhanced α-ketoisocaproate” (Frontiers in Microbiology, 2022).

System: CC(C)C[C@H](N)C(=O)O
Assay: purified protein
Conditions: 20 mM phosphate pH 7.5, 37 °C, 0-175 mM L-leucine (b36 says optimal temperature and pH), Triton X-100 purified enzyme

Substance | Km [mM] | kcat [s⁻¹] | kcat/Km [M⁻¹ s⁻¹]
L-amino acid deaminase (L-AAD) from Proteus vulgaris (Proteus vulgaris; D340G) | 16.01 | 1.69 | 106
L-amino acid deaminase (L-AAD) from Proteus vulgaris (Proteus vulgaris; D340N) | 9.87 | 2.32 | 235
L-amino acid deaminase (L-AAD) from Proteus vulgaris (Proteus vulgaris; L363N) | 15.87 | 1.7 | 107
